Test results reported in PubChem BioAssay AID624256 (NMMLSC, 2012).
The entries are a selection whose mix differs from that of the whole data set. Activity calls are given as the source filed them.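 Rule for the calls: active = normalized GFP-positive differentiation at or above the plate's own cutoff, the solvent-only control mean plus 3 SD; inconclusive = no clear call, values can overlap the other calls; inactive = the rest.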

Experiment: induction of myeloid progenitor differentiation, primary screen, cell-based, flow cytometry, MLPCN library (AID 624256);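 note: cells exposed to compound for four days before flow analysis; 0% = DMSO wells and 100% = fulvestrant positive control at 5 µM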
Conditions: ER-HoxA9 myeloid progenitors, lysozyme-GFP differentiation, at 10 µM, stronger effect = higher value
In the case of `Cc1cc(SC(NC(=O)c2ccccc2)C(Cl)(Cl)Cl)nc(C(C)C)n1` (configuration not stated), the normalized GFP-positive differentiation is reported as active: 25.2%. With `O=[N+]([O-])c1cc([N+](=O)[O-])c(CCNc2ccccc2)c([N+](=O)[O-])c1` the normalized GFP-positive differentiation was active: 96.4%.
